In patent US20220332764A1, “T CELL EPITOPES OF HCMV AND USES OF THEREOF” (EBERHARD KARLS UNIVERSITÄT TÜBINGEN, priority 2019, published 2022):

Tested on: CD8+ / CD4+ T cells of donor PBMCs
Assay: Intracellular cytokine staining (ICS; IFNγ, TNFα, CD107a)
Format: cell-based, human

Sequence: GLFAVENFL (listed as Human cytomegalovirus) [SEQ ID NO: 4]
- T-cell subset mediating the response (ICS): T-cell response mediated by CD4+ cells
